Source: PubChem BioAssay AID504339 (National Center for Advancing Translational Sciences (NCATS), 2011)
This is a selection; strong and weak results do not stand in their true shares. Results filed as inconclusive are left out. Entries that show only a call come without a potency. Active and inactive are the calls of the source. Calls follow the shape of the dose curve; as a rule, active = well fitted inhibition curve with a large enough effect; inconclusive = small, poorly fitted or top-dose-only effect; inactive = no such curve, though single readings can be large or run the other way.

Sequences of proteins named here, by UniProt entry; tags and fusion partners are left off. A change or cut given only in a name is not applied to a line headed by its entry.
UniProt O75164: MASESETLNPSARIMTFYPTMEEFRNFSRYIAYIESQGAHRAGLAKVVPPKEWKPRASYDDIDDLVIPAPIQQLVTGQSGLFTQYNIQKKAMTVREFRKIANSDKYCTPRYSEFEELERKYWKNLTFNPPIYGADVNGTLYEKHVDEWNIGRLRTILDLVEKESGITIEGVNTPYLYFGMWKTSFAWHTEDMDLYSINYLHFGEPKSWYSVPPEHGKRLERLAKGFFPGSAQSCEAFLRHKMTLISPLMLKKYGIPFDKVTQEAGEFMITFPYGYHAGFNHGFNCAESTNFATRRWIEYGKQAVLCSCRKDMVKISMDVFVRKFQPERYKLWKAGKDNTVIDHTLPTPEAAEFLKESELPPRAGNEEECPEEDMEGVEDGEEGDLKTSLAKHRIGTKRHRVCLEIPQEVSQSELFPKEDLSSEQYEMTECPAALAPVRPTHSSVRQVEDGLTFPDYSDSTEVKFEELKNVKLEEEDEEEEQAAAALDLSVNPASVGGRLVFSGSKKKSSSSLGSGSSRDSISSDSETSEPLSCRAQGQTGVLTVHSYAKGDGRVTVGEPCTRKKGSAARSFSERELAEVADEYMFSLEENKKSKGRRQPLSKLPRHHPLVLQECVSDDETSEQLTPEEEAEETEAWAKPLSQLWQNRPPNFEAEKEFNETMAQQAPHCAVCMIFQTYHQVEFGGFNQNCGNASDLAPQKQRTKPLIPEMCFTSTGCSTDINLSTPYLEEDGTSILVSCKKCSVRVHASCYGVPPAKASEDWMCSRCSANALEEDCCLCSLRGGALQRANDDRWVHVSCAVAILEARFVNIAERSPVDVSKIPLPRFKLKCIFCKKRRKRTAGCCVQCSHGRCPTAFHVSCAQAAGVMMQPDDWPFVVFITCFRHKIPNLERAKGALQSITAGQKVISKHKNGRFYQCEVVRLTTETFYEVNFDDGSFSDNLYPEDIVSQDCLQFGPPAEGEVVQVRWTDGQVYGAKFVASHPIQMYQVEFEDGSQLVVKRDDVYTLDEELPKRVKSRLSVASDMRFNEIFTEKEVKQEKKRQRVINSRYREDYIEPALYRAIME

Target: Lysine-specific demethylase 4A (Homo sapiens) (UniProt O75164)
Test: qHTS Assay for Inhibitors of JMJD2A-Tudor Domain; also: nearly all actives have a fitted effect of over 50% in size
Details: AlphaScreen JMJD2A-Tudor / H3K4me3 peptide binding; series mostly up to 114 µM
Potency is read from the fitted curve at half-maximal effect.

Compound	Potency	activity change, negative = inhibition
O=C(OC1CN2CCC1CC2)c1cccc([N+](=O)[O-])c1 (configuration not stated)	inactive	–
CCOP(=O)(Nc1cccc2cccnc12)OCC	inactive	–
CCC(C)N(CC(C)C)C(=S)SC(NC(C)=O)C(Cl)(Cl)Cl (configuration not stated)	inactive	–
O=C(COc1ccccc1)OC1CN2CCC1CC2 (configuration not stated)	inactive	–
O=C(Nc1ccncc1[N+](=O)[O-])c1ccc([N+](=O)[O-])cc1[N+](=O)[O-]	inactive	–
CCOC(=O)Nc1cccc([As](=O)(O)O)c1	inactive	–
O=[N+]([O-])c1ccc(Nc2ccc(Oc3ccc([N+](=O)[O-])cc3[N+](=O)[O-])cc2)c([N+](=O)[O-])c1	inactive	–
CC1CCNP(=O)(N(CCCl)CCCl)O1 (configuration not stated)	inactive	–
CCOC(=O)Nc1ccc([As](=O)(O)O)c(O)c1	–	inactive: -11.8% [at 11.4 µM]
CCCCOc1ccc(C(=O)NCC2(N3CCCCC3)CCCCC2)cc1OC	inactive	–
Cc1cc(SC(NC(=O)c2ccccc2)C(Cl)(Cl)Cl)nc(C(C)C)n1 (configuration not stated)	active: 70.8 µM	–
COC(=O)C1(C)COP(=O)(N2CCCCCC2)OC1 (configuration not stated)	inactive	–
CC(C)c1ccc(OP(=O)(Nc2ccccn2)Oc2ccccc2F)cc1 (configuration not stated)	inactive	–
ClCCSc1nnc(-c2cccnc2)o1	inactive	–
CC(C)NC(=O)NP(=O)(Oc1ccccc1)Oc1ccccc1	inactive	–
O=C(OC1CN2CCC1CC2)c1cccc2[nH]cnc12 (configuration not stated)	inactive	–
CCN(CC)C(=S)SC(NC=O)C(Cl)(Cl)Cl (configuration not stated)	inactive	–
C[As](=O)(O)c1cccc(C(=O)O)c1	inactive	–
O=[As](O)(c1ccc(O)cc1)c1ccccc1O	inactive	–
O=[N+]([O-])c1ccc(-c2cc([N+](=O)[O-])c(O)c([N+](=O)[O-])c2)cc1	active: 14.1 µM	–
COc1cc(C(=O)NCC2(N3CCOCC3)CCCCC2)ccc1OCC(C)C	inactive	–
Cc1ccc2nc3c(c(C)c2c1)CC(C(Cl)Cl)S3 (configuration not stated)	inactive	–
Cc1ccc(OP(=O)(Nc2ccc([N+](=O)[O-])cn2)Oc2ccc(C)cc2)cc1	inactive	–
COc1ccc(N/C(=N/P(=O)(N2CCOCC2)N2CCOCC2)N2CCOCC2)cc1	inactive	–
O=C(OC1CN2CCC1CC2)C12CC3CC(CC(C3)C1)C2 (configuration not stated)	inactive	–
Cc1cc(=O)[nH]c(N[N+](=O)[O-])n1	inactive	–

Compound	Potency	activity change, negative = inhibition
Cc1c2c(nc3ccccc13)SC(C(Cl)Cl)C2 (configuration not stated)	inactive	–
COc1ccc2nc(NP(=O)(c3ccccc3)c3ccccc3)sc2c1	inactive	–
COc1cc(I)ccc1[As](=O)(O)O	inactive	–
O=P1(N(CCCl)CCCl)Nc2ccccc2N1	inactive	–
O=P1(N(CCCl)CCCl)OCCCN1CCCl (configuration not stated)	inactive	–
CCCOP(=S)(Nc1nc(N)cc(=O)[nH]1)OCCC	inactive	–
Nc1cccc2c([As](=O)(O)O)cccc12	inactive	–
Cc1ccc(NCCc2c([N+](=O)[O-])cc([N+](=O)[O-])cc2[N+](=O)[O-])cc1	active: 15.8 µM	–
COc1cc(C2NCCC3(OCCO3)C2(C)C)cc(OC)c1OC (configuration not stated)	inactive	–
CCOP(=O)(Nc1cccc2ccccc12)OCC	inactive	–
O=[As](O)(O)c1cccnc1	–	inactive: -14.7% [at 11.4 µM]
COc1cc(C(=O)NCC2(N3CCOCC3)CCCCC2)cc(Cl)c1OC(C)C	–	inactive: -15.8% [at 11.4 µM]
CS(=O)(=O)c1ccc(Cl)c(NC(=O)COC(=O)C(O)(c2ccccc2)c2ccccc2)c1	inactive	–
O=C(OC1CN2CCC1CC2)c1ccc(Cl)cc1 (configuration not stated)	inactive	–
Cc1cccc(OCC(=O)OC2CN3CCC2CC3)c1 (configuration not stated)	inactive	–
O=[As](O)(c1cccc(O)c1)c1cccc(O)c1	inactive	–
NC(=O)Nc1ccc([As](=O)(O)O)cc1	inactive	–
O=[N+]([O-])c1ccc2c(c1)nnn2O	inactive	–
CN(C)C(=O)c1cc([N+](=O)[O-])cc2c1-c1c(cc([N+](=O)[O-])cc1[N+](=O)[O-])C2=O	inactive	–
CN(C(=O)Cc1ccc(Cl)c(Cl)c1)[C@H]1CC[C@@]2(CCCO2)C[C@@H]1N1CCCC1	inactive	–
N#CCCN(C(=O)COC(=O)C(O)(c1ccccc1)c1ccccc1)c1ccc(F)cc1	inactive	–
CCOP1(=S)c2c(C)nn(CCC#N)c2N=C(c2ccc(F)cc2)N1C (configuration not stated)	inactive	–
CN(C(=O)Cc1ccccc1)[C@@H]1CC[C@]2(CCCO2)C[C@H]1N1CCCC1	inactive	–
CS(=O)(=O)c1cc([N+](=O)[O-])c2no[n+]([O-])c2c1	active: 5.62 µM	–
CCOP1(=S)c2c(C)nn(CCC#N)c2N=C(c2ccccc2F)N1C (configuration not stated)	inactive	–
O=P(Nc1nccs1)(Oc1ccccc1)Oc1ccccc1	inactive	–

Compound	Potency	activity change, negative = inhibition
O=P(Nc1nccs1)(c1ccccc1)c1nc2ccccc2s1 (configuration not stated)	active: 4.47 µM	–
O=C(O)COc1ccc([As](=O)(O)O)cc1[N+](=O)[O-]	inactive	–
Nc1ccccc1[As](=O)(O)c1ccccc1	inactive	–
O=P1(Nc2ncccn2)COc2ccccc2OC1	inactive	–
O=[As](O)(c1cccs1)c1cccs1	inactive	–
Cc1ccc(OCC(=O)OC2CN3CCC2CC3)cc1 (configuration not stated)	inactive	–
NS(=O)(=O)c1cccc(NC(=O)COC(=O)C(O)(c2ccccc2)c2ccccc2)c1	inactive	–
O=P1(Nc2ccc(Br)cn2)COc2ccccc2OC1	inactive	–
Nc1cccc([As](=O)(O)c2ccccc2)c1	inactive	–
Cc1nn(-c2ccccc2)c2c1P(=O)(N1CCOCC1)N(C)C(c1ccccc1)=N2 (configuration not stated)	inactive	–
Cc1ccc(C(=O)OC2CN3CCC2CC3)cc1 (configuration not stated)	inactive	–
CC1CCC(C(C)C)C(OP(=O)(Nc2ccccn2)c2ccccc2)C1 (configuration not stated)	inactive	–
O=C(/C=C/c1ccccc1)OC1CN2CCC1CC2 (configuration not stated)	inactive	–
CCCC1OP(=O)(Nc2ccccc2)OCC1CC (configuration not stated)	inactive	–
CN(C)C1(CNC(=O)c2ccc(S(C)(=O)=O)cc2)CCCCC1	inactive	–
COc1ccccc1CNC(=O)COC(=O)C(O)(c1ccccc1)c1ccccc1	inactive	–
CC1(CBr)Cn2c(nc3ccccc3c2=O)S1 (configuration not stated)	inactive	–
CN(C(=O)Cc1ccc(Cl)c(Cl)c1)[C@@H]1CCCC[C@H]1N1CCCC1	inactive	–
CC(C)/C=N\N=C(\N)N[N+](=O)[O-]	inactive	–
CCOP(=O)(Nc1ccc(C)cn1)OCC	inactive	–
CCC1=CC2Cc3nc4ccc(Cl)cc4c(N)c3C(C1)C2 (configuration not stated)	inactive	–
O=P1(Nc2ccccn2)COc2ccccc2OC1	inactive	–
CCOP(=O)(NC(=NC(C)c1ccccc1)NC(C)c1ccccc1)OCC (configuration not stated)	inactive	–
Clc1n[nH]nc1-c1nn[nH][15n]1	active: 2.82 µM	–
CC(C)(C)C(=O)NC(Sc1ncccn1)C(Cl)(Cl)Cl (configuration not stated)	inactive	–
